Results published in PubChem BioAssay AID588674 (Broad Institute, 2011).
The whole screen tested about 360,000 compounds, of which about 1,800 (0.5%) were called active. Listed are the inconclusive results; actives and inactives stand elsewhere.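 How the source made its calls: active means mean inhibition of at least 75% with every replicate also reaching 75%; inconclusive means mean inhibition at least 75% but some replicate below; inactive means mean inhibition below 75%.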

Assay: reduction of Shn3 3'UTR firefly luciferase signal, primary screen, Schnurri-3 inhibitor project, cell-based, Clone20 osteoblasts, set 2 (AID 588674);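 further: 0% = median of neutral control wells and 100% = pilot-screen positive control compound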
Conditions: Clone20 osteoblast Shn3 3'UTR firefly luciferase, 24 h; at 12.5 µM; active compounds read high

Question: For `CCc1nc2c(n1)c1c(non1O)c1c2no[n+]1[O-]`, which inhibition is on record?
Answer: inconclusive: 80.9%

Question: Which inhibition does the source give for `O=c1c2cc([N+](=O)[O-])ccc2[nH]c2c([N+](=O)[O-])cc([N+](=O)[O-])cc12` here?
Answer: inconclusive: 86.2%
